Compound activity deposited in PubChem BioAssay by ICCB-Longwood Screening Facility, Harvard Medical School.
GIV-Gai inh: inhibitors of GIV GBA-motif binding to rat Galpha-i3; P08753; Galpha-i3/FITC-GIV peptide fluorescence polarization, 90 min; hits give low values; scaled: aluminum fluoride 0%, vehicle 100%; percent of control (FP), % (no concentration beside the values); 210,000 compounds, 0.42% hits;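 active means replicate mean at 85% of control or lower, very high polarization wells dropped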;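 further: wells of about 15 µL received 100 nL stock; the first replicate is given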
HCMV NEC inh: disrupts HCMV UL50-UL53 complex binding. inhibition, % (concentration not given with the values). HTRF UL50-UL53 interaction, normalized percent inhibition. 0.15% of 190,000 active. AID 1918969; in the data active means inhibition above about 27%, passing the limit was not always enough
Active calls of the source: *; . = not tested or not shown. Most compounds without a hit are left out; they make up all but 0.43% or so of the library.

1) CCn1c(C(=O)Nc2ccc(C(C)C)cc2)cc2sc(Cl)cc21
2) CN(Cc1ccccc1)C(=O)CCc1nc(CN2CCN(S(=O)(=O)c3ccc(C(C)(C)C)cc3)CC2)no1
3) COC(=O)c1sccc1N1Cc2ccncc2C1=O
4) O=C1c2cnccc2CN1c1cc(F)ccc1F
5) O=c1c2ccc(NCCO)c3cccc(c32)c2nc3ccccc3n12
6) O=C(O)c1ccc2c3c1cccc3c(=O)n1c3ccccc3nc21
7) COc1cccc(C(=O)c2sc3nsc(SCc4ccccc4)c3c2N)c1
8) COc1cccc(C(=O)Nc2nnc(SCc3ccccc3)s2)c1

entry no.,1,2,3,4,5,6,7,8
GIV-Gai inh,98,105,105,108,-52*,.,-42*,.
HCMV NEC inh,-6,-4,-30,35*,.,-57,-39,-8

Shown as a hit in GIV-Gai inh, of those listed so far:
no.	mol	GIV-Gai inh
5	O=c1c2ccc(NCCO)c3cccc(c32)c2nc3ccccc3n12	-52*
7	COc1cccc(C(=O)c2sc3nsc(SCc4ccccc4)c3c2N)c1	-42*

Continuation.
9) CCn1c(SCC(=O)Nc2cccc3nsnc23)nc2ccccc21
10) CCOC(=O)C1=C(C)N=c2s/c(=C\c3ccc4c(c3)OCO4)c(=O)n2C1c1ccc(OC)cc1OC (stereo unspecified)
11) Cc1cc(C2CCCN2C(=O)C2CCCC2)on1 (stereo unspecified)
12) Cc1cc2nc(COc3cc(Cl)ccc3NC(=O)COc3ccccc3)cc(=O)n2o1
13) CC(c1ccccc1)C1C(C#N)=C(N)SC(N)=C1C#N (stereo unspecified)
14) CC(CC1C(C#N)=C(N)SC(N)=C1C#N)c1ccccc1 (stereo unspecified)
15) COc1cc(OC)c(NC(=O)C2CCN(c3ncccc3-n3c(C)ccc3C)CC2)cc1Cl
16) O=S(=O)(c1ccc2nsnc2c1)N1CCCCC1c1cccnc1 (stereo unspecified)

entry no.,9,10,11,12,13,14,15,16
GIV-Gai inh,.,109,98,97,108,-74*,98,102
HCMV NEC inh,-23,.,.,7,-18,-8,2,-58

17) O=S(=O)(c1ccc2c(c1)OCCO2)N1CCCCC1c1cccnc1 (stereo unspecified)
18) N#Cc1c(N2CCCC2)nc(N)c2c(N)nc(N3CCCC3)cc12
19) Cc1cc(C)c(C#N)c(N2CCCC2)n1
20) C#CCN1C(=O)C(O)(C2CCc3ccccc3C2=O)c2ccccc21 (stereo unspecified)
21) Cc1ccccc1/C=C/c1c[nH]c2ccccc12
22) OCC[n+]1ccc(/C=C/c2c[nH]c3ccccc23)cc1
23) CCn1c(O)c(/C=c2/c(C)c(C#N)c3nc4ccccc4n3c2=O)n(CC)c1=S
24) CCc1c(C)c(C#N)c2nc3ccccc3n2c1NCCN(C)C

entry no.,17,18,19,20,21,22,23,24
GIV-Gai inh,-71*,.,109,101,101,-18*,-48*,.
HCMV NEC inh,-17,97*,0,-30,-15,.,.,-14

25) CCc1c(C)c(C#N)c2nc3ccccc3n2c1Nc1ccncc1
26) Cc1c(C#N)c2nc3ccccc3n2c(=O)/c1=C/NN1C(=O)CNC1=S
27) CN(C)c1ccc(/C=C2/N=C(c3cccs3)OC2=O)cc1
28) CN(C)c1ccc(/C=C2\N=C(c3ccc(Br)o3)OC2=O)cc1
29) CCOCCCNC(=O)c1nn(C)c2c1CCc1sccc1-2
30) COC(=O)CC(c1ccc(O)cc1)N1Cc2ccccc2C1=O (stereo unspecified)
31) COc1cc(C(=O)COC(=O)Cn2cnc3ccccc3c2=O)ccc1OC(F)F
32) O=C(c1ccc2nc(/C=C(\O)c3ccc(Cl)cc3)c(=O)[nH]c2c1)N1CCN(c2ccco2)CC1

entry no.,25,26,27,28,29,30,31,32
GIV-Gai inh,112,-31*,.,-56*,98,.,.,330
HCMV NEC inh,.,-25,-12,-26,-11,-6,-18,-81

33) O=C(c1ccc2nc(/C=C(\O)c3ccc(Cl)cc3)c(=O)[nH]c2c1)N1CCOCC1
34) CCCn1c(SCC(=O)NCCc2ccccc2)nc2c(oc3ccccc32)c1=O
35) NC(=O)CSc1cn(CCNC(=O)c2ccccc2)c2ccccc12
36) O=C(O)c1cc2ccccc2c(=O)[nH]1
37) O=c1[nH]c(Nc2ccccc2)cc2ccccc12
38) CC1Oc2ccccc2N(CC(=O)O)C1=O (stereo unspecified)
39) CCOc1cc(C=C2C(=O)N(C)C(=O)N(C)C2=O)ccc1OCCOc1ccc([N+](=O)[O-])cc1
40) CCOc1cc(C=C2C(=O)N(C)C(=O)N(C)C2=O)ccc1OCCOCCOc1ccc(C)cc1

entry no.,33,34,35,36,37,38,39,40
GIV-Gai inh,68*,100,99,104,-60*,.,103,105
HCMV NEC inh,-95,-23,-13,-23,110*,-2,55*,10

41) O=C(COC(=O)c1ccc(N2C(=O)c3ccccc3C2=O)cc1)Nc1ccc(N2CCOCC2)cc1
42) CCCn1c(Cn2ccnc2C)nc2cc(NC(=O)c3ccccc3C)ccc21
43) O=C(NCCc1ccncc1)c1cc(Br)ccc1O
44) COc1ccc(-c2nc(Nc3ccc4c(c3)OCCO4)c3ccccc3n2)cc1OC
45) COc1ccc(-c2nc(Nc3ccc(OC)c(Cl)c3)c3ccccc3n2)cc1
46) N#C/C(=C\c1ccc(N2CCCC2)o1)c1ccccc1
47) N#C/C(=C\c1ccc(-c2ccccc2)o1)c1ccccc1
48) Cc1ccc2[nH]c3c(N(C)C)ncnc3c2c1
49) Cc1ccc2nc(NCCCN3CCOCC3)c3nncn3c2c1
50) N#Cc1cc(C#N)c(SCC(=O)N(c2ccccc2)C2CCCCC2)nc1N

entry no.,41,42,43,44,45,46,47,48,49,50
GIV-Gai inh,.,101,102,101,111,-49*,137,100,102,.
HCMV NEC inh,-40,-16,-17,34*,1,-19,9,.,11,21
